Assay outcomes (PubChem)
TRPM1 prom inh – inhibitors of MITF-dependent TRPM1 promoter reporter, primary screen, cell-based, SK-MEL-5, single point, luciferase. 330,000 compounds, 0.83% hits. SK-MEL-5 TRPM1 promoter luciferase, 24 h. inhibition, % at 12.5 µM;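 active means mean inhibition across replicates of 60% or more, whatever share of single replicates reaches that level; inconclusive means some that reach 60%, reason not given; inactive means mean inhibition across replicates below 60%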
MITF act – activators of MITF-driven TRPM1 promoter reporter, primary screen, cell-based, SK-MEL-5, luciferase, single point. SK-MEL-5 TRPM1-promoter luciferase, 24 h; % of positive control, neutral wells = 0. activation, % at 12.5 µM. 300,000 compounds, 0.75% hits. AID 588334, 2011;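 active means mean activation of at least 80% with every replicate also reaching 80%; inconclusive means mean reaches 80% but some replicate falls short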;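 further: 0% = neutral control wells and 100% = parthenolide positive control wells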
miR122 inh – miR-122 Renilla sensor signal increase in Huh7, primary screen, miR-122 inhibitor project, cell-based, single point, plate reader. 340,000 compounds, 0.3% hits. Huh7 miR-122 Renilla luciferase sensor, 48 h; neutral wells = 0, positive control = 100. activation (reporter increase), % at 12.5 µM;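 active means mean replicate activation score at least 90 and every replicate individually at or above 90; inconclusive means only one of the two criteria met; inactive means neither criterion met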;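 further: higher luciferase means less miR-122 activity so hits act as miR-122 inhibitors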
Wnt bcat act – Wnt/beta-catenin pathway activators, primary screen, cell-based, plate reader, single point; activation, % at 9.35 µM; 300,000 compounds, 1.2% hits; Wnt/beta-catenin reporter cell assay, activator; in the data active means activation above about 30%, passing the limit was not always enough; inconclusive means no clear call, values can overlap the other calls;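 further: 0% = neutral control wells and 100% = positive control wells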
UUG fidelity – modulators of yeast start codon fidelity, primary screen, whole organism, S. cerevisiae, single point, plate reader; S. cerevisiae UUG-firefly luciferase reporter, luminescence/redox ratio; activity score, % at 18.7 µM; 0.13% of 350,000 active; AID 602363, 2012;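 active = replicate mean at a twofold rise or more, about +100% in these data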;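 also: firefly luciferase made from a UUG start codon reports start codon fidelity; reporter light over untreated wells divided by growth signal over untreated wells; some hits fall short of that in this replicate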
PGC1a acetyl inh – inhibitors of PGC1a acetylation signal, primary screen, cell-based, U2OS, AlphaScreen, inhibitor mode. AlphaScreen anti-acetyl-lysine; with virally co-expressed GCN5 acetyltransferase. inhibition, % at 15.6 µM. 350,000 compounds, 0.17% hits;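 active means every replicate shows inhibition of at least 40%; inconclusive means mean inhibition at least 40% but some replicate below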;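 further: 0% = neutral control wells and 100% = positive control wells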
Numbers without * were called inactive; ? = inconclusive; . = no result; [ ] = dose if it differs, or a comment. Hits are enriched below; roughly 2.1% of the tested compounds scored in any of these assays.

| # | SMILES | TRPM1 prom inh | MITF act | miR122 inh | Wnt bcat act | UUG fidelity | PGC1a acetyl inh |
| --- | --- | --- | --- | --- | --- | --- | --- |
| 1 | O=C(NCc1ccc2c(c1)OCO2)Nc1cccc(Cl)c1 | -76.6 | 80.1* | -2.1 | 10.8 | -8.7 | . |
| 2 | CC(=O)c1cccc(NC(=O)NCc2ccc3c(c2)OCO3)c1 | -10.6 | 7.6 | . | 2.1 | -6.9 | . |
| 3 | O=C(Nc1cccc([N+](=O)[O-])c1)NC1CCCCCCC1 | -98.3 | 91.4* | 0.7 | 23.8 | 1.1 | 5.5 |
| 4 | Cc1ccc(NC(=O)Nc2ccc3c(c2)OCO3)cc1F | -123.5 | 126.5* | 5.8 | 0.2 | -6.1 | -5.7 |
| 5 | O=C(Nc1ccc2c(c1)OCCO2)Nc1ccc2c(c1)OCO2 | -16.6 | 25.0 | -24.5 | 10.5 | . | -5.3 |
| 6 | O=C(Nc1cccc(Cl)c1)Nc1ccc2c(c1)OCO2 | -73.4 | 42.8 | 11.9 | 31.6* | -18.7 | ? |
| 7 | C[C@@H]1CN([C@H](C)CO)C(=O)Cc2cc(NC(=O)Nc3cccc4ccccc34)ccc2O[C@@H]1CN(C)Cc1ccc(Oc2ccccc2)cc1 | . | . | -3.5[16.7 µM] | . | 2.4 | -11.4 |
| 8 | C[C@@H]1CCCCO[C@@H](CN(C)C(=O)c2ccccc2)[C@@H](C)CN([C@@H](C)CO)C(=O)c2cc(NS(=O)(=O)c3ccc(Cl)cc3)ccc2O1 | . | . | -4.2[16.7 µM] | . | -14.0 | -0.9 |
| 9 | O=C(NC(=S)NCc1ccc2c(c1)OCO2)c1ccccc1 | 4.5 | -4.7 | 111.2* | -1.0 | -7.6 | . |
| 10 | O=C(Nc1cccc([N+](=O)[O-])c1)Nc1ccc2c(c1)OCCO2 | -82.4 | 90.0* | . | 9.9 | . | -9.9 |
| 11 | O=C(NCc1ccc2c(c1)OCO2)c1ccccc1 | -13.1 | 13.4 | . | 0.2 | . | 1.8 |
| 12 | O=C(Nc1ccc2c(c1)OCO2)N1CCCc2ccccc21 | -32.2 | 31.5 | -7.1 | 36.2* | -10.6 | -13.5 |

Pulled by compound from the list above (5):
| # | SMILES | TRPM1 prom inh | MITF act | miR122 inh | Wnt bcat act | UUG fidelity | PGC1a acetyl inh |
| --- | --- | --- | --- | --- | --- | --- | --- |
| 11 | O=C(NCc1ccc2c(c1)OCO2)c1ccccc1 | -13.1 | 13.4 | . | 0.2 | . | 1.8 |
| 6 | O=C(Nc1cccc(Cl)c1)Nc1ccc2c(c1)OCO2 | -73.4 | 42.8 | 11.9 | 31.6* | -18.7 | ? |
| 7 | C[C@@H]1CN([C@H](C)CO)C(=O)Cc2cc(NC(=O)Nc3cccc4ccccc34)ccc2O[C@@H]1CN(C)Cc1ccc(Oc2ccccc2)cc1 | . | . | -3.5[16.7 µM] | . | 2.4 | -11.4 |
| 4 | Cc1ccc(NC(=O)Nc2ccc3c(c2)OCO3)cc1F | -123.5 | 126.5* | 5.8 | 0.2 | -6.1 | -5.7 |
| 9 | O=C(NC(=S)NCc1ccc2c(c1)OCO2)c1ccccc1 | 4.5 | -4.7 | 111.2* | -1.0 | -7.6 | . |

Next section:
| # | SMILES | TRPM1 prom inh | MITF act | miR122 inh | Wnt bcat act | UUG fidelity | PGC1a acetyl inh |
| --- | --- | --- | --- | --- | --- | --- | --- |
| 13 | Cc1ccc2c(c1)CCCN2C(=O)Nc1ccc2c(c1)OCO2 | -1.9 | . | -0.8 | 29.3 | -50.3 | -1.4 |
| 14 | O=C(NCc1ccccc1)NC1(C(=O)Nc2ccc3c(c2)OCCO3)CCCCC1 | 64.5* | -64.9 | -0.6 | . | -26.2 | 4.2 |
| 15 | C[C@H]1CN([C@@H](C)CO)C(=O)c2cccc(NC(=O)c3nc4ccccc4s3)c2O[C@@H]1CN(C)Cc1ccncc1 | . | . | 19.1[16.7 µM] | . | -7.2 | 3.6 |
| 16 | C/C=C/c1ccc2c(c1)O[C@@H](CN(C)Cc1ccc(C(=O)O)cc1)[C@@H](C)CN([C@H](C)CO)S2(=O)=O | . | . | 2.9[16.7 µM] | . | 9.8 | 9.1 |
| 17 | COCc1cn(CC[C@H]2CC[C@H](NC(=O)CCN3CCCCC3)[C@H](CO)O2)nn1 | . | . | . | . | -8.5 | 0.0 |
| 18 | O=C(Nc1ccc2c(c1)CCC2)Nc1ccc2c(c1)OCO2 | -54.5 | 63.5 | 3.3 | 50.0* | 7.0 | -1.2 |
| 19 | COc1cccc(NC(=O)Nc2ccc3c(c2)OCO3)c1 | -64.3 | 67.4 | 8.4 | 40.4* | -23.4 | . |
| 20 | COc1cc(C#Cc2c(-c3cncn3C)n(C)c3ccc(-c4cnc(N5CCOCC5)nc4)cc23)cc(OC)c1 | -88.1 | 89.1* | . | 21.6 | -11.9 | . |
| 21 | COc1cc(C#Cc2c(-c3cncn3C)n(C)c3ccc(-c4ccc(CN5CCOCC5)cc4)cc23)cc(OC)c1 | -27.6 | 28.0 | -1.6 | 4.8 | -15.7 | -7.5 |
| 22 | Cn1cccc1C(=O)OCc1csc(-c2ccccc2)n1 | -17.5 | 21.6 | 6.3 | 71.2* | . | -2.5 |
| 23 | Cc1ccccc1Nc1nc(N)nc(COC(=O)c2ccc(O)cc2)n1 | -10.6 | 13.8 | . | 1.9 | . | 8.7 |
| 24 | O=C(OCc1csc(-c2ccccc2)n1)c1cccs1 | -30.6 | . | 8.0 | -2.0 | -49.2 | 16.5 |
| 25 | Cc1ccccc1Nc1nc(N)nc(COC(=O)c2cccn2C)n1 | -58.6 | . | -5.5 | 66.4* | -28.6 | 0.2 |
| 26 | CCc1ccccc1Nc1nc(N)nc(COC(=O)c2cccn2C)n1 | -30.1 | 32.0 | 3.2 | -5.9 | -3.2 | -5.4 |
| 27 | Cc1ccccc1Nc1nc(N)nc(COC(=O)c2ccccc2)n1 | -78.2 | 83.0* | . | . | . | . |
| 28 | C[C@@H]1CN([C@@H](C)CO)C(=O)c2cc(NC(=O)CCC(F)(F)F)ccc2O[C@@H](C)CCCCO[C@H]1CN(C)S(=O)(=O)c1cccs1 | . | . | 11.3[16.7 µM] | . | 23.3 | -2.2 |
| 29 | CCOC(=O)CNC(=O)OC1CCN2Cc3ccccc3N=C12 (stereo not given) | 2.2 | -1.2 | -5.9 | 0.0 | -13.2 | 77.5* |
| 30 | C[C@@H]1CN([C@@H](C)CO)C(=O)c2cc(NC(=O)Nc3cccc4ccccc34)ccc2O[C@@H]1CN(C)C(=O)Nc1ccc(F)cc1 | . | . | -10.1[16.7 µM] | . | -10.3 | -5.9 |
| 31 | CCOC(=O)N1CCC(N2CCCC(C(=O)c3cc(F)ccc3OC)C2)CC1 (stereo not given) | 7.0 | -8.8 | . | 50.1* | . | . |
| 32 | CCc1noc(C)c1C(=O)N1CCCC(C(=O)c2cc(F)ccc2OC)C1 (stereo not given) | -3.5 | 3.2 | -2.7 | 2.1 | . | -0.7 |
| 33 | Cc1nc(-c2ccc([N+](=O)[O-])cc2)nc2[nH]ccc(=O)c12 | -103.1 | 104.9* | 0.9 | 36.8* | 0.3 | 0.0 |
| 34 | COCC(=O)N1CC2(C1)CN(C(=O)CN1CCOCC1)[C@H](CO)c1c2c2ccc(OC)cc2n1C | . | . | . | . | . | -0.3 |
| 35 | N#C/C(=N\Nc1ccc(F)cc1)C(=N)N1CCCCC1 | -109.1 | 114.5* | -1.0 | . | -19.2 | 6.3 |
| 36 | N#C/C(=N\Nc1cccc(F)c1)C(=N)N1CCCCCC1 | -83.3 | ? | . | 12.8 | . | -8.3 |
| 37 | N#C/C(=N\Nc1ccccc1)C(=N)N1CCCCCC1 | -49.3 | 55.8 | . | 42.5* | . | 0.4 |
| 38 | CN(C)CC(=O)N[C@H]1CC[C@@H](CC(=O)NCCN2CCCCC2)O[C@H]1CO | . | . | . | . | -10.8 | -0.6 |
| 39 | O=C(CN1CCOCC1)N[C@H]1CC[C@@H](CCn2cc(C3CCCC3)nn2)O[C@H]1CO | . | . | . | . | . | 4.1 |
| 40 | COc1ccc(NC(=O)CSc2nc(SC)ns2)cc1 | -104.3 | 108.2* | -1.8 | ? | -10.7 | . |
| 41 | Cc1ccsc1C(=O)OCC(=O)Nc1nnc(-c2ccccc2)o1 | -1.0 | 2.7 | . | -0.1 | -38.5 | . |
| 42 | Cc1ccsc1C(=O)OCc1nnc(-c2ccccc2)o1 | -93.7 | 95.9* | 0.1 | 13.2 | -17.6 | 2.2 |
| 43 | C[C@@H]1CN([C@@H](C)CO)C(=O)c2cc(/C=C/c3ccccc3)cnc2O[C@H]1CN(C)C(=O)Cc1cccnc1 | . | . | 2.6[16.7 µM] | . | . | 9.8 |
| 44 | Cc1ccc(-n2nc3c(N4CCC(C(=O)NCCc5cccs5)CC4)nnc(C)c3c2C)cc1 | 88.6* | -89.0 | . | -1.5 | -13.8 | . |
| 45 | COc1c(C(=O)NNC(=O)c2ccccc2)csc1Br | -59.4 | 59.2 | . | 38.9* | . | . |
| 46 | COc1ccc(Cn2c(-c3ccc(C)cc3)c[n+]3ccccc23)cc1 | 77.7* | -76.5 | 4.4 | -7.1 | -17.2 | -12.5 |
| 47 | CC(C)NC(=O)N(C)C[C@@H]1Oc2ncc(-c3ccc(C(=O)N(C)C)cc3)cc2C(=O)N([C@H](C)CO)C[C@@H]1C | . | . | -3.2[16.7 µM] | . | -0.2 | 4.6 |
| 48 | CC(C)C(=O)N1CCN(c2ccc(NC(=O)c3ccc([N+](=O)[O-])o3)cc2Cl)CC1 | 85.2* | -85.3 | . | -20.4 | . | 30.0 |
